The assay concerns the target JAK2 (Homo sapiens (Human), UniProt O60674). Kind of assay: JAK2 inhibitory activity, mobility shift assay, 1 mM ATP. As to conditions: Table 7. The format is biochemical. On the procedure:
The JAK1 inhibitory activity and the JAK2 inhibitory activity of the amide compounds provided in the above examples were tested by the method below.
Specific steps are described below. • 1. A 1× Kinase buffer was formulated. • 2. Concentration gradients of the compound were formulated: a test compound with an initial concentration of 10000 nM (JAK1) or 30000 nM (JAK2) was diluted in a 384-well plate to a 100% DMSO solution with a 100-fold final concentration, wherein the compound was diluted by a fold of 3 to 10 concentrations. 250 nL of the compound with the 100-fold final concentration was transferred with a dispenser Echo 550 to the target plate. • 3. A kinase solution with a 2.5-fold final concentration was prepared with the 1× Kinase buffer. • 4. […] The plate was centrifuged at 1000 rpm for 30 s, shaken and uniformly mixed, and incubated for 10 min at room temperature. • 6. A mixed solution of ATP (the final concentration of ATP=1 mM) and Kinase substrate with a 5/3-fold final concentration was formulated with the 1× Kinase buffer. • 7. 15 μL of the mixed solution of ATP and the substrate with the 5/3-fold final concentration was added to initiate the reaction. • 8. […] The conversion rate was read with Caliper EZ Reader and the half maximal inhibitory concentration (IC50) was calculated.

Protein sequences, listed by entry. Tags and fused reporters are not part of them. Residues count along the entry.
UniProt O60674, 826-1132: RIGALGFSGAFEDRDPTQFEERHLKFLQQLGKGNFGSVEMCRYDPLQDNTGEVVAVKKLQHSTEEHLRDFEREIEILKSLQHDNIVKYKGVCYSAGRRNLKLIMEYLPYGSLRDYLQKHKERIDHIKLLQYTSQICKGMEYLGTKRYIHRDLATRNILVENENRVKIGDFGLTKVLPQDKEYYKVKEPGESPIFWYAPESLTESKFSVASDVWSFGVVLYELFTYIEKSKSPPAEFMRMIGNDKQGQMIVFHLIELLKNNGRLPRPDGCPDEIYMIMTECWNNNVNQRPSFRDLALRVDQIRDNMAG

In general, IC50 refers to the midpoint of a concentration-inhibition curve.

In the case of `CCS(=O)(=O)N1CC(CC#N)(n2cc(-c3ncnc4[nH]ccc34)cn2)C1` [baricitinib, reference compound], the 50% inhibitory concentration (IC50) amounted to 9 nM.

These data come from patent publication US20230416237A1, “AMIDE COMPOUND, PHARMACEUTICAL COMPOSITION AND USE THEREOF” (SHENZHEN BO LI JIAN MEDICINE CO., LTD., priority 2020, published 2023).
